Experimental data published in patent publication US20160309764A1, “FOOD COMPOSITION COMPRISING FERROUS PICOLINATE” (NESTEC S.A., priority 2013, published 2016).

Key:
[1] = Colour change of fortified pasteurized yoghurts on storage at 37° C. versus colour immediately after pasteurization (CIELAB); format: physicochemical; details: stored at 37° C.
[2] = Colour difference of iron fortified strawberry-banana yoghurt after flash pasteurization versus yoghurt with no iron salts (CIELAB); format: physicochemical; details: approx. 0.8 mg iron per 100 g, pasteurized at 105° C. for 2 minutes
Description: Commercial yoghurt, Nestlé Jogolino™ Strawberry/Banana yoghurt containing 15% banana puree and 10% strawberry puree was iron fortified by the addition of different iron salts to 5 kg yoghurt as reported in the table below. The amounts were chosen to provide approximately 0.8 mg iron per 100 g yoghurt. […] Colour measurements were performed in 1×1 cm polystyrene cuvettes using an X-Rite ColorEye 7000A colorimeter. The colorimeter was set up with a D65 light source, 10 degree observer angle and with specular component included. The colour difference between the yoghurt with no iron salts and the iron fortified yoghurt was measured for each iron salt and expressed as ΔEab* using the CIELAB colour scale.

## ferric pyrophosphate [Fe4(P2O7)3 × H2O]
[1]; day 7, versus colour immediately after pasteurization
  ΔEab* day 7: 1.09
[1]; day 30, versus colour immediately after pasteurization
  ΔEab* day 30: 3.61
[1]; day 60, versus colour immediately after pasteurization
  ΔEab* day 60: 6.21
[1]; day 120, versus colour immediately after pasteurization
  ΔEab* day 120: 10.23
[2]
  ΔEab*: 3.43
